Tested on: E. coli 70S ribosomes
Experiment: Kinetic peptidyl transfer (puromycin) assay on E. coli 70S ribosomes
Format: biochemical
Settings: source data of Fig. 3b; unit printed in the legend b16 only; n = 2; read-out: Ki, app of fMet-Pmn release from 70S
Procedure: The effects of GRn or PRn on peptide bond formation in E. coli ribosome were tested in an in vitro assay that reacts the 70S ribosome loaded with [^35S]-fMet-tRNA^fMet in the P-site with puromycin, an A-site tRNA mimic, and measures the release of the resulting dipeptide containing formyl-methionine covalently bonded to puromycin, as described. E. coli tRNA^fMet (Chemical Block) was aminoacylated with [^35S]-N-formyl-L-methionine (Perkin Elmer) as described. 70S ribosomes were prepared from E. coli (MRE600) as described. 70S ribosomes were stored in the ribosome-storage buffer (20 mM Tris-HCl, pH 7.0; 100 mM NH4Cl; 20 mM MgCl2) at –80 °C. […]
The kinetics of puromycin reaction on the 70S or 80S ribosomes were recorded and analyzed essentially as described. […] 600 μl of the extract were mixed with 3.5 ml of Econo-Safe scintillation cocktail (RPI), and the amount of released [^35S]-labeled dipeptide was measured for each time point using a scintillation counter (Beckman Coulter, Inc.).
All time progress curves were recorded in duplicates, using independently prepared 70S or 80S complexes. Reaction rates were calculated using single-exponential or double-exponential (80S complexes) regressions for different concentrations of PRn and GRn using GraphPad Prism 8. […]

Q: `N=C(N)NCCC[C@H](NC(=O)CNC(=O)[C@H](CCCNC(=N)N)NC(=O)CNC(=O)[C@H](CCCNC(=N)N)NC(=O)CNC(=O)[C@H](CCCNC(=N)N)NC(=O)CNC(=O)[C@H](CCCNC(=N)N)NC(=O)CNC(=O)[C@H](CCCNC(=N)N)NC(=O)CNC(=O)[C@H](CCCNC(=N)N)NC(=O)CNC(=O)[C@H](CCCNC(=N)N)NC(=O)CNC(=O)[C@H](CCCNC(=N)N)NC(=O)CNC(=O)[C@H](CCCNC(=N)N)NC(=O)CN)C(=O)O` [GR10] was tested. Which Ki did it give?
A: 634 nM
